{"source": "patent EP0434750B1", "about": "(priority 1988, dated 1990)", "key": {"[1]": {"system": "Tyrosine hydroxylase (TH)", "assay": "Tyrosine hydroxylase activity in monkey brain homogenate (tritium release method)", "assay_type": "in vivo, Macaca fascicularis", "settings": "MPTP alone; monkeys M1-3", "excerpt": "(§1) Four animals are naive controls. […] TABLE 3"}, "[2]": {"system": "monkeys (Macaca fascicularis)", "assay": "Dopamine and homovanillic acid levels in monkey brain samples (HPLC)", "assay_type": "in vivo", "excerpt": "as §1"}, "[3]": {"settings": "monkeys receiving MPTP alone, caudate and putamen"}}, "note": "“And” between values parts separate entries of the source, which are not always exact repeats. Identical values can stand only once."}
{"smiles": "CN1CC=C(c2ccccc2)CC1", "note": "[MPTP, 1-Methyl-4-phenyl-1,2,5,6-tetrahydropyridine]", "values": [{"measurement": "PUTAMEN TH (% control)", "setting": "[1]", "value": "11.8 % control and 10.8 % control and 21.0 % control"}, {"measurement": "CAUDATE DA", "setting": "[2]; MPTP alone, monkeys M1-3", "value": "0.6 nmol per g tissue and 0.9 nmol per g tissue"}, {"measurement": "PUTAMEN DA", "setting": "[2]; MPTP alone, monkeys M1-3", "value": "1.2 nmol per g tissue and 1.4 nmol per g tissue and 1.8 nmol per g tissue"}, {"measurement": "Dopamine depleted to % of control", "setting": "[2]; [3]", "value": "about 1 % of control"}, {"measurement": "HVA % of control", "setting": "[2]; [3]", "value": "about 10 % of control"}]}
